# Ab-14 heavy chain CDR variants: yeast mating affinities

Values reported by Li et al. 2023, doi:10.1038/s41467-023-39022-2 (FLAb copy).

The target is the same throughout: PDVDLGDISGINAS, from the HR2 region of SARS-CoV-2 spike.

Ab-14 is the parent antibody, in scFv form: VH, then the linker GGGGSGGGGSGGGGS, then VL. The light chain is unchanged in all variants.
VH: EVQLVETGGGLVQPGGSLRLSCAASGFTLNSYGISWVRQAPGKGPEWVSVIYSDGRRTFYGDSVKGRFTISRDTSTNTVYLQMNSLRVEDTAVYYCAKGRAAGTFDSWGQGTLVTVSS
VL: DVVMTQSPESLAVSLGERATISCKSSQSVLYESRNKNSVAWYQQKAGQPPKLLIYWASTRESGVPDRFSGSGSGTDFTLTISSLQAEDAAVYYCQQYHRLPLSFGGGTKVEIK

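The parent was found by panning a naive human phage display library on the peptide. This is the validation round: designs drawn from the data on random variants, tested in the same kind of assay. Several design methods are mixed in this list. The scFvs were displayed on barcoded MATa yeast, the peptide on MATalpha yeast. Binding brings cells together so that they mate, and sequencing counts the barcode pairs among the diploids. Read counts were normalised to the haploid input and turned into Kd by a linear fit to BCL2-family pairs of known affinity, for each replicate. There are six technical replicates.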

Variants are written as CDR1, CDR2 and CDR3 of the heavy chain (limits as in the source). Parent: GFTLNSYGIS, VIYSDGRRTFYGDSVK, GRAAGTFDS.
Numbers give log10(Kd / nM), so 0 is 1 nM and 3 is 1 µM. Smaller is tighter.
The mean shown is taken over the replicates in which the pair was detected.
"no signal" marks a missing value. The strain was present, yet no cells mated with the target were sequenced in any replicate, which points to weak or no binding.

| # | CDR-H1 | CDR-H2 | CDR-H3 | mean, log10 nM | replicates with signal |
|---|---|---|---|---|---|
| 1 | GFDLNSYGIS | VIYSDGRRTFYADSVK | GKVAGTFDS | -1.58 | 5 of 6 |
| 2 | GFTLNSYGIS | VIYSDGRRTFYLDSVK | GRAGGTFDT | 1.36 | 3 of 6 |
| 3 | GFDLNEYGIS | VIYADGQRTAYADDVK | GNNAGTFDQ | 0.09 | 6 of 6 |
| 4 | GFSLDEYGIS | VIYADGVRQAYQDSVK | GQWHGTMMY | no signal | 0 of 6 |
| 5 | GFTLNEYGIS | VIYSDGRRTFYTDSVK | GKAAGTFDS | no signal | 0 of 6 |
| 6 | GFTLNEYGIS | VIYSDGRRTFYSDSVK | GRAAGFFSS | 0.94 | 6 of 6 |
| 7 | GFTLNSYGIS | VIYSDGRRTFYEDSVK | GRVACTFDS | no signal | 0 of 6 |
| 8 | GFTLNSYGIS | VIYSDGRRTFYDSSVK | GQLAGTFDS | 1.70 | 6 of 6 |
| 9 | GFDLNEYGIS | VIYADGKRTAYTDSVK | GNNAGTFDI | -0.30 | 6 of 6 |
| 10 | KFDLNSYGIS | VIYSDGRRTFYGDSVK | GRTAGTFDK | 1.91 | 6 of 6 |
| 11 | GFDLNEYGIS | VIYADGMRTAYTDSVK | GQNAGTFDV | -0.54 | 6 of 6 |
| 12 | GFTLNDYGIS | VLYSDHRRTFYGDSVK | GRAALTFIS | no signal | 0 of 6 |
| 13 | GFDLNEYGIS | VIYADGRRTAYADSVK | GQLAGTFDS | -0.88 | 6 of 6 |
| 14 | GFDLNEYGIS | VIYADGVRTAYSDSVK | GEAGGTFDV | 0.22 | 6 of 6 |
| 15 | GYDIEQYGIS | VIYADGIRTVYDDKVK | GHNGDTFYV | no signal | 0 of 6 |
| 16 | GFSLDEYGVS | VIYADGIRTQYTNDVK | GLYSFAFKM | no signal | 0 of 6 |
| 17 | GFTLNSYGIS | VIYSDGRRTFYQDSVK | GTAAGTFFL | 1.98 | 2 of 6 |
| 18 | GFDLNSYGAS | VIYSDGRRTAYGDSVK | GRAAGWFNS | 2.73 | 1 of 6 |
| 19 | GFDLNEYGIS | VIYADGMRTFYADNVK | GENAGTFDI | -0.59 | 6 of 6 |
| 20 | GFTLVDYGIS | VIYSDGRRTQYIDSVK | GRCAGTFDS | no signal | 0 of 6 |
| 21 | GFDLDEYGIS | VIYADGMRTAYSDSVK | GGNAGTFDL | 2.40 | 1 of 6 |
| 22 | GFTLESYGIS | VIYSDGRRTFYGDSVK | GEAAGIFDS | no signal | 0 of 6 |
| 23 | GFDLNEYGIS | VIYADGVRTAYSDSVK | GQTAGTFDV | -0.74 | 6 of 6 |
| 24 | GFTLNEYGIS | VIYSDGQRTFYGDSVK | GRAAGTFIS | no signal | 0 of 6 |
| 25 | GLTLMSYGIS | VIYSDGRRTSYGDSVK | GRAAGTFDD | no signal | 0 of 6 |
| 26 | GFDLNEYGIS | VIYADGRRTFYSDSVK | GEIAGTFDF | -0.24 | 6 of 6 |
| 27 | GFDLNEYGIS | VIYADGKRTAYSDDVK | GENAGTFDV | -0.21 | 6 of 6 |
| 28 | GGDLEKYGIS | VIYADGKRSEYSNAVK | GQQAGTLLT | no signal | 0 of 6 |
| 29 | GFTLNEYGIS | VIYSDGMRTFYSDSVK | GRTAGTFDS | 0.15 | 6 of 6 |
| 30 | GFDLNSYGIS | VIYSDGRRTRYGDSVK | GRALGWFNS | no signal | 0 of 6 |
| 31 | GFDLNEYGIS | VIYADGRRTFYSDSVK | GNFGGTFDI | -0.01 | 6 of 6 |
| 32 | HFTLNSYGIS | VIYSDGRRTFYIDSVK | GHVAGTFDS | 0.90 | 6 of 6 |
| 33 | GFELNEYGIS | VIYSDGRRTFYGDSVK | GRQAGTFDS | -0.06 | 6 of 6 |
| 34 | GFTLNSYGIS | VIYSDGKRTFYGDSVK | GQVAGTFDT | 0.51 | 6 of 6 |
| 35 | GFTLNDYGIS | VIYSDGRRTFYGDSVK | GKHAGTFDS | 0.34 | 6 of 6 |
| 36 | GFCLNSYGIS | VIYSDGQRTFYQDQVK | GTLAGTFPS | no signal | 0 of 6 |
| 37 | GFTLNSYGIS | VIYSDGRRTFYIDQVK | GRAAGTPPL | no signal | 0 of 6 |
| 38 | GFTLNDYGIS | VIYSDGRRLFYLDSVK | GRAALTFIS | no signal | 0 of 6 |
| 39 | GFTLNSYGIS | VIYSDGRRTFYSDSVK | GRLGGTFDT | 0.99 | 6 of 6 |
| 40 | GFDLDEYGIS | VIYADGQRTAYTDSVK | GTNAGTFDV | -0.52 | 1 of 6 |
| 41 | GFNLDEYGVS | VIYADGNRNQYTEDVK | GTNGGAVDL | no signal | 0 of 6 |
| 42 | GFQLNEYGIS | VIYSDGRRTFYQDSVK | GQAAGTFDK | 0.38 | 6 of 6 |
| 43 | GFTLQSYGIS | VIYSDGRRTSYGDSVK | GDAADTFDS | no signal | 0 of 6 |
| 44 | GFDLDEYGIS | VIYADGKRTAYADSVK | GEVAGTFDQ | 0.04 | 6 of 6 |
| 45 | GFTLNSYGIS | VIYSDGRRTFYGDSVK | GRLAGTFDY | 2.15 | 3 of 6 |
| 46 | GFTLESYGIS | VIYSDGRRTFYGDSVK | GRAAGTFES | no signal | 0 of 6 |
| 47 | GFDLNEYGIS | VIYADGLRTSYADSVK | GQVAGTFDQ | -0.12 | 6 of 6 |
| 48 | GFTLNSYGIS | VIYSDGMRTQYGDSVK | GRAAGAFDS | 2.30 | 1 of 6 |
| 49 | GFDLNSYGIS | VIYSDGKRTFYGDSVK | GKTAGTFDS | -0.04 | 6 of 6 |
| 50 | GFDLNEYGIS | VIYADGRRTFYVDSVK | GEVAGIFNV | -0.29 | 6 of 6 |

4 of these entries, quoted again:

CDR-H1	CDR-H2	CDR-H3	mean, log10 nM	replicates with signal
GFDLNEYGIS	VIYADGRRTAYADSVK	GQLAGTFDS	-0.88	6 of 6
GFTLNSYGIS	VIYSDGMRTQYGDSVK	GRAAGAFDS	2.30	1 of 6
GFDLNSYGIS	VIYSDGKRTFYGDSVK	GKTAGTFDS	-0.04	6 of 6
GFDLNEYGIS	VIYADGRRTFYVDSVK	GEVAGIFNV	-0.29	6 of 6

Of ten entries with the parent sequence, four were seen in most replicates (averages 0.34 to 2.37), three in one and three in none, so single entries are noisy.
The authors averaged sequences with at least three values out of six and counted those with two or fewer as poor binders.
Empty control strains, which show no peptide, gave a signal in 1% of pairings with all heavy chain designs; the median was 2.08 and 95% of these signals were weaker than 0.84. No background was subtracted.
The range of this assay differs from that of the first round, and the authors advise against merging the two.